Results reported in patent US12285437B2 (The Research Foundation for The State University of new York, priority 2019, dated 2025).
Where two headings read alike, the source gives them in different places.

Legend:
[1] = for release of drug (doxorubicin) / Mol. % of DMA 8 / Mol. % of DMI 7 formed / Mol. % of Decomposition Products / Mol. % of Dox Released: 37° C.
[2] = system: SKOV3 human ovarian cancer cells; details: FIG. 9A, SKOV3, 2.5 hr, 10 μM
[3] = system: PC-3 human prostate cancer cells; details: FIG. 9B, PC3, 2.5 hr, 10 μM
[4] = system: ES-2 human ovarian cancer cells; assay: pH-dependent anti-proliferation assay (MTS; alamar Blue for FIG. 7I); details: for Cell Viability Average (Avg): FIG. 7A, ES-2, 6 hr
Source text: pH-dependent anti-proliferation assays with cells.
NaOH to adjust the pH to 9.9.

[5] = system: MDA-MB-231 human breast cancer cells

Substance: Doxorubicin Disubstituted Maleamic Acid Glutathione Conjugate [Dox-DMA-GSH 8]
- pH 6.5/7.4 ratio of Dox release ([1]; 37 C, aq. buffer): 3-4 fold
- release of drug (doxorubicin) ([1]; 3 hr, pH 7.4 (FIG. 6)): 10-20%
- release of drug (doxorubicin) ([1]; 3 hrs, pH 6.5 (FIG. 6)): 60-70%
- Mol. % of DMA 8 ([1]; pH 6.5, 0 hr): 94 Mol. %
- Mol. % of DMI 7 formed ([1]; pH 6.5, 0 hr): 6 Mol. %
- Mol. % of Decomposition Products ([1]; pH 6.5, 0 hr): 0 Mol. %
- Mol. % of Dox Released ([1]; pH 6.5, 0 hr): 0 Mol. %
- Mol. % of DMA 8 ([1]; pH 6.5, 1 hr): 56 Mol. %
- Mol. % of DMI 7 formed ([1]; pH 6.5, 1 hr): 8 Mol. %
- Mol. % of Decomposition Products ([1]; pH 6.5, 1 hr): 1 Mol. %
- Mol. % of Dox Released ([1]; pH 6.5, 1 hr): 35 Mol. %
- Mol. % of DMA 8 ([1]; pH 6.5, 3 hr): 20 Mol. %
- Mol. % of DMI 7 formed ([1]; pH 6.5, 3 hr): 10 Mol. %
- Mol. % of Decomposition Products ([1]; pH 6.5, 3 hr): 1 Mol. %
- Mol. % of Dox Released ([1]; pH 6.5, 3 hr): 69 Mol. %
- Mol. % of DMA 8 ([1]; pH 6.5, 4 hr): 16 Mol. %
- Mol. % of DMI 7 formed ([1]; pH 6.5, 4 hr): 10 Mol. %
- Mol. % of Decomposition Products ([1]; pH 6.5, 4 hr): 1 Mol. %
- Mol. % of Dox Released ([1]; pH 6.5, 4 hr): 73 Mol. %
- Mol. % of DMA 8 ([1]; pH 6.5, 5 hr): 13 Mol. %
- Mol. % of DMI 7 formed ([1]; pH 6.5, 5 hr): 12 Mol. %
- Mol. % of Decomposition Products ([1]; pH 6.5, 5 hr): 1 Mol. %
- Mol. % of Dox Released ([1]; pH 6.5, 5 hr): 74 Mol. %
- Mol. % of DMA 8 ([1]; pH 6.5, 6.5 hr): 6 Mol. %
- Mol. % of DMI 7 formed ([1]; pH 6.5, 6.5 hr): 12 Mol. %
- Mol. % of Decomposition Products ([1]; pH 6.5, 6.5 hr): 6 Mol. %
- Mol. % of Dox Released ([1]; pH 6.5, 6.5 hr): 76 Mol. %
- Mol. % of DMA 8 ([1]; pH 6.5, 8 hr): 2 Mol. %
- Mol. % of DMI 7 formed ([1]; pH 6.5, 8 hr): 12 Mol. %
- Mol. % of Decomposition Products ([1]; pH 6.5, 8 hr): 8 Mol. %
- Mol. % of Dox Released ([1]; pH 6.5, 8 hr): 78 Mol. %
- Mol. % of DMA 8 ([1]; pH 6.5, 9 hr): 2 Mol. %
- Mol. % of DMI 7 formed ([1]; pH 6.5, 9 hr): 16 Mol. %
- Mol. % of Decomposition Products ([1]; pH 6.5, 9 hr): 8 Mol. %
- Mol. % of Dox Released ([1]; pH 6.5, 9 hr): 74 Mol. %
- Mol. % of DMA 8 ([1]; pH 6.5, 12 hr): 1 Mol. %
- Mol. % of DMI 7 formed ([1]; pH 6.5, 12 hr): 16 Mol. %
- Mol. % of Decomposition Products ([1]; pH 6.5, 12 hr): 10 Mol. %
- Mol. % of Dox Released ([1]; pH 6.5, 12 hr): 73 Mol. %
- Mol. % of DMA 8 ([1]; pH 7.4, 0 hr): 73 Mol. %
- Mol. % of DMI 7 formed ([1]; pH 7.4, 0 hr): 10 Mol. %
- Mol. % of Decomposition Products ([1]; pH 7.4, 0 hr): 17 Mol. %
- Mol. % of Dox Released ([1]; pH 7.4, 0 hr): 0 Mol. %
- Mol. % of DMA 8 ([1]; pH 7.4, 2 hr): 53 Mol. %
- Mol. % of DMI 7 formed ([1]; pH 7.4, 2 hr): 17 Mol. %
- Mol. % of Decomposition Products ([1]; pH 7.4, 2 hr): 20 Mol. %
- Mol. % of Dox Released ([1]; pH 7.4, 2 hr): 10 Mol. %
- Mol. % of DMA 8 ([1]; pH 7.4, 5 hr): 23 Mol. %
- Mol. % of DMI 7 formed ([1]; pH 7.4, 5 hr): 24 Mol. %
- Mol. % of Decomposition Products ([1]; pH 7.4, 5 hr): 20 Mol. %
- Mol. % of Dox Released ([1]; pH 7.4, 5 hr): 33 Mol. %
- Mol. % of DMA 8 ([1]; pH 7.4, 9 hr): 19 Mol. %
- Mol. % of DMI 7 formed ([1]; pH 7.4, 9 hr): 26 Mol. %
- Mol. % of Decomposition Products ([1]; pH 7.4, 9 hr): 22 Mol. %
- Mol. % of Dox Released ([1]; pH 7.4, 9 hr): 33 Mol. %
- Mol. % of DMA 8 ([1]; pH 7.4, 12 hr): 18 Mol. %
- Mol. % of DMI 7 formed ([1]; pH 7.4, 12 hr): 26 Mol. %
- Mol. % of Decomposition Products ([1]; pH 7.4, 12 hr): 22 Mol. %
- Mol. % of Dox Released ([1]; pH 7.4, 12 hr): 34 Mol. %
- Mol. % of DMA 8 ([1]; pH 7.4, 16 hr): 14 Mol. %
- Mol. % of DMI 7 formed ([1]; pH 7.4, 16 hr): 27 Mol. %
- Mol. % of Decomposition Products ([1]; pH 7.4, 16 hr): 25 Mol. %
- Mol. % of Dox Released ([1]; pH 7.4, 16 hr): 34 Mol. %
- Mol. % of DMA 8 ([1]; pH 7.4, 20 hr): 12 Mol. %
- Mol. % of DMI 7 formed ([1]; pH 7.4, 20 hr): 27 Mol. %
- Mol. % of Decomposition Products ([1]; pH 7.4, 20 hr): 25 Mol. %
- Mol. % of Dox Released ([1]; pH 7.4, 20 hr): 36 Mol. %
- Mol. % of DMA 8 ([1]; pH 7.4, 24 hr): 12 Mol. %
- Mol. % of DMI 7 formed ([1]; pH 7.4, 24 hr): 24 Mol. %
- Mol. % of Decomposition Products ([1]; pH 7.4, 24 hr): 28 Mol. %
- Mol. % of Dox Released ([1]; pH 7.4, 24 hr): 36 Mol. %
- Mol. % of DMA 8 ([1]; pH 7.4, 48 hr): 8 Mol. %
- Mol. % of DMI 7 formed ([1]; pH 7.4, 48 hr): 18 Mol. %
- Mol. % of Decomposition Products ([1]; pH 7.4, 48 hr): 45 Mol. %
- Mol. % of Dox Released ([1]; pH 7.4, 48 hr): 29 Mol. %
- Mol. % of DMA 8 ([1]; pH 7.4, 81 hr): 1 Mol. %
- Mol. % of DMI 7 formed ([1]; pH 7.4, 81 hr): 11 Mol. %
- Mol. % of Decomposition Products ([1]; pH 7.4, 81 hr): 60 Mol. %
- Mol. % of Dox Released ([1]; pH 7.4, 81 hr): 28 Mol. %
- Cell Viability Avg ([2]; pH 6.3-6.5): 43%
- Cell Viability Avg ([2]; pH 7.5-7.6): 53%
- Cell Viability Avg ([3]; pH 6.3-6.4): 56%
- Cell Viability Avg ([3]; pH 7.5-7.6): 70%
- Cell Viability Average (Avg) ([4]; 0.5 μM, pH 6.6-6.8): 64%
- Cell Viability Average (Avg) ([4]; 0.5 μM, pH 7.2-7.5): 61%
- Cell Viability Average (Avg) ([4]; 1 μM, pH 6.6-6.8): 22%
- Cell Viability Average (Avg) ([4]; 1 μM, pH 7.2-7.5): 45%
- Cell Viability Avg ([4]; FIG. 7E, ES2, 2.5 hr, 2 μM, pH 6.3-6.4): 43%
- Cell Viability Avg ([4]; FIG. 7E, ES2, 2.5 hr, 2 μM, pH 6.5): 50%
- Cell Viability Avg ([4]; FIG. 7E, ES2, 2.5 hr, 2 μM, pH 6.7-6.8): 51%
- Cell Viability Avg ([4]; FIG. 7E, ES2, 2.5 hr, 2 μM, pH 6.8-6.9): 63%
- Cell Viability Avg ([4]; FIG. 7E, ES2, 2.5 hr, 2 μM, pH 7.2): 69%
- Cell Viability Avg ([4]; FIG. 7E, ES2, 2.5 hr, 2 μM, pH 7.2-7.4): 80%
- Cell Viability Avg ([4]; FIG. 7I, ES2, FBS(50%), 2 μM, pH 6.5-6.9): 50%
- Cell Viability Avg ([4]; FIG. 7I, ES2, FBS(50%), 2 μM, pH 7.2-7.7): 89%
- Cell Viability Avg ([4]; FIG. 7I, ES2, FBS(50%), 4 μM, pH 6.5-6.9): 19%
- Cell Viability Avg ([4]; FIG. 7I, ES2, FBS(50%), 4 μM, pH 7.2-7.7): 46%
- Cell Viability Avg ([4]; FIG. 7I, ES2, FBS(50%), 6 μM, pH 6.5-6.9): 8%
- Cell Viability Avg ([4]; FIG. 7I, ES2, FBS(50%), 6 μM, pH 7.2-7.7): 21%
- Cell Viability Avg ([4]; FIG. 7I, ES2, no FBS, 2 μM, pH 6.5-6.9): 58%
- Cell Viability Avg ([4]; FIG. 7I, ES2, no FBS, 2 μM, pH 7.2-7.7): 86%
- Cell Viability Avg ([4]; FIG. 7I, ES2, no FBS, 4 μM, pH 6.5-6.9): 21%
- Cell Viability Avg ([4]; FIG. 7I, ES2, no FBS, 4 μM, pH 7.2-7.7): 32%
- Cell Viability Avg ([4]; FIG. 7I, ES2, no FBS, 6 μM, pH 6.5-6.9): 7%
- Cell Viability Avg ([4]; FIG. 7I, ES2, no FBS, 6 μM, pH 7.2-7.7): 17%
- Cell Viability Avg ([4]; FIG. 10B, ES2, 12 hr, 0.3 μM, pH 6.6-6.7): 100%
- Cell Viability Avg ([4]; FIG. 10B, ES2, 12 hr, 0.3 μM, pH 7.4-7.6): 73%
- Cell Viability Avg ([4]; FIG. 10B, ES2, 12 hr, 1 μM, pH 6.6-6.7): 50%
- Cell Viability Avg ([4]; FIG. 10B, ES2, 12 hr, 1 μM, pH 7.4-7.6): 23%
- Cell Viability Avg ([5]; FIG. 7B, MDA-MB231, 2 hr, 4 μM, pH 6.3-6.4): 53%
- Cell Viability Avg ([5]; FIG. 7B, MDA-MB231, 2 hr, 4 μM, pH 7.6-7.7): 68%
- Cell Viability Avg ([5]; FIG. 7B, MDA-MB231, 2 hr, 6 μM, pH 6.3-6.4): 24%
- Cell Viability Avg ([5]; FIG. 7B, MDA-MB231, 2 hr, 6 μM, pH 7.6-7.7): 68%
- Cell Viability Avg ([5]; FIG. 7B, MDA-MB231, 2 hr, 8 μM, pH 6.3-6.4): 13%
- Cell Viability Avg ([5]; FIG. 7B, MDA-MB231, 2 hr, 8 μM, pH 7.6-7.7): 68%
- Cell Viability Avg ([5]; FIG. 7F, MDA-MB231, 2.5 hr, 6 μM, pH 6.3-6.4): 27%
- Cell Viability Avg ([5]; FIG. 7F, MDA-MB231, 2.5 hr, 6 μM, pH 6.5): 32%
- Cell Viability Avg ([5]; FIG. 7F, MDA-MB231, 2.5 hr, 6 μM, pH 6.6-6.7): 53%
- Cell Viability Avg ([5]; FIG. 7F, MDA-MB231, 2.5 hr, 6 μM, pH 6.9-7.0): 56%
- Cell Viability Avg ([5]; FIG. 7F, MDA-MB231, 2.5 hr, 6 μM, pH 7.2-7.3): 66%
- Cell Viability Avg ([5]; FIG. 7F, MDA-MB231, 2.5 hr, 6 μM, pH 7.5-7.7): 84%
- less cytotoxic than the free drug (3 μM) ([5]; MDA-MB231, 2-3 h, 6-8 μM prodrug, pHe 7.5-7.6): 2-4 ×
